The values that follow come from patent US20060292076A1, “Antimicrobial mediated ozone generation” (priority 2002, published 2006).

The assay in a line: Production of hydrogen peroxide by immunoglobulins and proteins under UV irradiation (Amplex Red assay). Type of assay: biochemical. The conditions noted are these: irradiation in PBS. As to the method:
All assays were carried out in PBS (10 mM phosphate/160 mM sodium chloride, pH 7.4). Commercial protein solution samples were dialyzed into PBS as necessary. Amplex Red hydrogen peroxide assay kits (A-12212) were obtained from Molecular Probes.
Antibody/Protein Irradiation. Unless otherwise stated, the assay solution (100 μl, 6.7 μM protein in PBS, pH 7.4) was added to a glass vial, sealed with a screw-cap, and irradiated with either UV (312 nm, […] Fischer-Biotech transilluminator) or visible light.
Quantitative Assay for Hydrogen Peroxide. An aliquot (20 μl) from the protein solution was removed and added into a well of a 96-well microtiter plate (Costar) containing reaction buffer (80 μL). Working solution (100 μl/400 μM Amplex Red reagent ½ units/ml horseradish peroxidase) was then added, and the plate was incubated in the dark for 30 min. The fluorescence of the well components was then measured using a CytoFluor Multi well Plate Reader (Series 4000, PerSeptive Biosystems, Framingham, Mass.; Ex/Em: 530/580 nm). The hydrogen peroxide concentration was determined using a standard curve. All experiments were run in duplicate, and the rate is quoted as the mean of at least two measurements.

“β2-microglobulin: member of the immunoglobulin superfamily”: the “ability of non-immunoglobulin proteins to reduce ^1O2 / generate H2O2” value was “does not generate H2O2”. Besides, the “ability of non-immunoglobulin proteins to reduce ^1O2 / generate H2O2” value (listed as Human β2-microglobulin) was “does not generate H2O2”. The “ability of non-immunoglobulin proteins to reduce ^1O2 / generate H2O2” value (listed as β2-macroglobulin) is recorded as “does not generate hydrogen peroxide”.
